Measurements published in PubChem BioAssay AID488794 (Sanford-Burnham Center for Chemical Genomics, 2010).
The list shows a part of the results, in another mix than the full data. Active and inactive are the calls of the source. No stated cut-off is given here; in the data, active means inhibition above about 50%; inactive means the rest.

experiment: NALP3 inhibitors in yeast, repeat test, confirmation, luminescence, single concentration, retest (AID 488794); details: yeast expressing human NALP3, luminescence read-out; at 10 µM; stronger effect = higher value

SMILES | inhibition
CC(C)(C)OC(=O)N1CCC(Nc2ccccc2)CC1 | inactive: 40.8%
